In article PMC3090454:

Molecular target: soybean trypsin inhibitor (STI) (soybean) (UniProt P01070)
Experiment: AUC

log10[Ka1] (1.7:1 data set, 280 nm data only, with mass conservation): 5.9
log10[Ka1] (1.7:1 data set, 280 nm data only, without mass conservation): 5.9
log10[Ka1] (1.7:1 data set, log10[Ka2/Ka1] fixed at −0.60206, RI noise only): 5.79
log10[Ka1] (1.7:1 data set, log10[Ka2/Ka1] fixed at −0.60206, with TI noise): 5.87
log10[Ka1] (1.7:1 data set, ratio of B to A floated): 5.89
log10[Ka1] (average of the data sets, 280 nm data only, with mass conservation): 5.76
log10[Ka1] (average of the five data sets, log10[Ka2/Ka1] fixed at −0.60206): 5.8
log10[Ka1] (average, log10[Ka2/Ka1] constraint removed): 5.4
stoichiometry N (α-chymotrypsin per STI): 2
Substance: α-chymotrypsin (from UniProt P00766 1-13; P00766 16-146; P00766 149-245) (enzyme; other documents disagree on this pair)
